What was measured:
[1] = target: EPHB3 (Homo sapiens, UniProt P54753); assay: NanoBRET target engagement in HEK293T cells, EPHB3; settings: read-out: EPHB3 INHIBITION IC50, 2 h
[2] = Caco-2 cell permeability; settings: 10 μM; for Caco-2 A-B Papp: 2 h, 37 °C; for Caco-2 EFFLUX RATIO: Papp(B to A)/Papp(A to B)
[3] = target: WEE1 (Homo sapiens, UniProt P30291); assay: NanoBRET target engagement in HEK293T cells, WEE1; settings: read-out: WEE1 INHIBITION IC50, 2 h
[4] = target: PKMYT1 (Homo sapiens, UniProt Q99640); assay: NanoBRET target engagement in HEK293T cells, PKMYT1; settings: read-out: PKMYT1 INHIBITION IC50, 2 h
[5] = system: OVCAR3 cells; assay: Cellular proliferation (Hoechst staining), OVCAR3; settings: read-out: OVCAR3 GI50; CCNE1-amplified, 4 days
[6] = target: CDK1 pThr14 (PKMYT1 substrate), FUOV-1 cells (Homo sapiens, UniProt Q99640); assay: Functional CDK1 pThr14 AlphaLISA assay in FUOV-1 cells; settings: read-out: pCDk1(Thr14) INHIBITION IC50, 2 h
[7] = system: SKOV3 cells; assay: Cellular proliferation (Hoechst staining), SKOV3; settings: read-out: SKOV3 GI50; CCNE1-nonamplified, 4 days
[8] = Metabolic stability in human liver microsomes (HLM); settings: human liver microsomes 1 mg/mL, 1 μM
[9] = Log D octanol/PBS pH 7.4; settings: octanol/PBS pH 7.4, 1 μM
[10] = Aqueous (thermodynamic) solubility, pH 7.4; settings: 0.1 M phosphate buffer pH 7.4, 24 h, 25 °C

Sequences of proteins named here, by UniProt entry; tags and fusion partners are left off. Residues count along the entry.
UniProt P54753, 34-998 limits assumed: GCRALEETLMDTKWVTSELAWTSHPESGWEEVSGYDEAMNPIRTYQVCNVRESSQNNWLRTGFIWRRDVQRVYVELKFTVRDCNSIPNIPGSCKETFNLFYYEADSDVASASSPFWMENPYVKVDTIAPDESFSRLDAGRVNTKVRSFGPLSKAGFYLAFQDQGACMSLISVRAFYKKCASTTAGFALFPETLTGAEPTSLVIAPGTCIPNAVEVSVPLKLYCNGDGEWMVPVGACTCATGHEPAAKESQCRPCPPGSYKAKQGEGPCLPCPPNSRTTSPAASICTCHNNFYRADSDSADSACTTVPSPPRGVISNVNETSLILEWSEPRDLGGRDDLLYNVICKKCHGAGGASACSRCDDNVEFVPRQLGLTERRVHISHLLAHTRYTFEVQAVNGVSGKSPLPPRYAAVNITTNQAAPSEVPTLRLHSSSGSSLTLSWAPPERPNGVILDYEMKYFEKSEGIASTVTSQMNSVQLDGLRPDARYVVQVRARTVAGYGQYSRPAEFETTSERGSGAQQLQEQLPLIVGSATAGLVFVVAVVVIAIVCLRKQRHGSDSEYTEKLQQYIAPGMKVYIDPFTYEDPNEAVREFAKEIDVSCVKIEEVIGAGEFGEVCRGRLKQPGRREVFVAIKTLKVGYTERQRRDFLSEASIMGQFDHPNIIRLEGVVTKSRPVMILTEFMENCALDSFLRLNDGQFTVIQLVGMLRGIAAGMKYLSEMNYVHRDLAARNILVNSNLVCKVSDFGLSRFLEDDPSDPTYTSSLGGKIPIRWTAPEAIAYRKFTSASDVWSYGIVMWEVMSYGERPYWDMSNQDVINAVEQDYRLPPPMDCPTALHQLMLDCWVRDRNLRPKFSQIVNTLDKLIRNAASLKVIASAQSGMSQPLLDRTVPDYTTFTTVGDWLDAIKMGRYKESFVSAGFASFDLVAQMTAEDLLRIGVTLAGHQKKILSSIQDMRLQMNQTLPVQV
UniProt P30291, whole entry: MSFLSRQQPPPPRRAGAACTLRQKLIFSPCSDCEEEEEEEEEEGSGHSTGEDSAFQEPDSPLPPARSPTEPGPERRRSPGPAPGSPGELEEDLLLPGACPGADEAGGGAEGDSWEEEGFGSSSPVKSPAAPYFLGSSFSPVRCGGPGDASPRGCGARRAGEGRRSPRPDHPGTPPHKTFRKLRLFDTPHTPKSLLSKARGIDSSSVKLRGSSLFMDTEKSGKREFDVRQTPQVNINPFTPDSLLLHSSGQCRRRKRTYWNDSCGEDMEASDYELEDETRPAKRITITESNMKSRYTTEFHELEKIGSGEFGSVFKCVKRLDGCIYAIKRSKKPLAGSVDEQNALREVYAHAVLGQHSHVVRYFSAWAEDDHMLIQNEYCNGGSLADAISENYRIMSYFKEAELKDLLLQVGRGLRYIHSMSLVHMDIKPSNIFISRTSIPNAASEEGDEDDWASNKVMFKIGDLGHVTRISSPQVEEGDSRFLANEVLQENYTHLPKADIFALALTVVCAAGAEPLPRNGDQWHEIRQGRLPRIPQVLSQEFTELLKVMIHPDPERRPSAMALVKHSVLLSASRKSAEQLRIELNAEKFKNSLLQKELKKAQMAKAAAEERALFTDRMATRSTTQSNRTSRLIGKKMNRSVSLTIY
UniProt Q99640, whole entry: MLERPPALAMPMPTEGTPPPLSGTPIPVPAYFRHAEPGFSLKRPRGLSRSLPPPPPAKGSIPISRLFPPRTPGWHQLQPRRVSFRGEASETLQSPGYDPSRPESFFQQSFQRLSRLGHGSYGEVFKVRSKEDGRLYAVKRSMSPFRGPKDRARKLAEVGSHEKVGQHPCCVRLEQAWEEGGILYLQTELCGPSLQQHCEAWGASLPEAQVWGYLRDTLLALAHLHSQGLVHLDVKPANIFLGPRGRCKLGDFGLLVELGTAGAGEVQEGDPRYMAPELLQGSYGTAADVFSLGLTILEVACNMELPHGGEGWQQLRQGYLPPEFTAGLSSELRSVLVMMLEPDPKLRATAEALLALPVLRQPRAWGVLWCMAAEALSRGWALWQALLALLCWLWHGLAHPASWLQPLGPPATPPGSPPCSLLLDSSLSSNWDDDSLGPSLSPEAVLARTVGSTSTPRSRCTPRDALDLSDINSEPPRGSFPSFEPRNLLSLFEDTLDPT

SMILES | IC50 [1] [µM] | Caco-2 A-B Papp [2] | Caco-2 EFFLUX RATIO [2] | IC50 [3] [µM] | IC50 [4] [µM] | GI50 [5] [µM] | IC50 [6] [µM] | GI50 [7] [µM] | HLM (CLint) [8] [µL/min/mg] | LogD [9] | Solubility pH 7.4 [10] [μM]
Cc1cc2c(cn1)c(C(N)=O)c(N)n2-c1c(C)ccc(O)c1C (single isomer, unassigned) [52, Isomer 1] | 0.727 | 9.952 1E−6.cm/s | 3.4 | > 10 | 0.031 | 28.7 | 0.641 | > 30 | <3.000 | – | –
Cc1ccc(O)c(C)c1-n1c(N)c(C(N)=O)c2cn(C)c(=O)cc21 (single isomer, unassigned) [56, Isomer 1] | 2.71 | 0.772 1E−6.cm/s | 9.91 | > 9.97 | 0.675 | 14.9 | 1.42 | > 30 | <3.000 | – | –
Cc1ccc(O)c(C)c1-n1c(N)c(C(N)=O)c2cnc(N3CCOCC3)nc21 (single isomer, unassigned) [47, Isomer 2] | 6.88 | 16.855 1E−6.cm/s | 14.6 | > 9.97 | 1.04 | > 30 | > 9.91 | > 30 | 15.138 | – | –
Cc1ccc(O)c(C)c1-n1c(N)c(C(N)=O)c2cnc(-c3cnn(C)c3)nc21 (racemic) | 0.643 | – | – | > 9.97 | 0.074 | 10.8 | 1.09 | > 30 | 6.070 | 1.8 | >1000
Cc1ccc(O)c(C)c1-n1c(N)c(C(N)=O)c2cnc(-c3ccnn3C)nc21 (racemic) | 0.405 | – | – | > 9.97 | 0.03 | 8.05 | 0.874 | > 30 | 14.900 | 2.2 | 977
Cc1ccc(O)c(C)c1-n1c(N)c(C(N)=O)c2cnc(-c3ccn(C)n3)nc21 (racemic) | 3.84 | – | – | > 9.97 | 0.226 | 12.2 | 0.519 | > 30 | 4.110 | 1.4 | 62
Cc1ccc(O)c(C)c1-n1c(N)c(C(N)=O)c2cnc(C3CC3)nc21 (racemic) | 0.346 | – | – | > 9.97 | 0.016 | 8.62 | 0.273 | 10.3 | 24.062 | 2.35 | >1000
COc1ncc2c(C(N)=O)c(N)n(-c3c(C)ccc(O)c3C)c2n1 (racemic) | 0.619 | – | – | > 9.97 | 0.033 | 4.4 | 0.326 | 15.6 | 7.340 | 1.5 | >1000
Cc1ccc(O)c(C)c1-n1c(N)c(C(N)=O)c2cnc(-c3cnc4n3CCC4)nc21 (racemic) | 1.54 | – | – | > 9.97 | 0.054 | 9.82 | 0.38 | > 30 | 16.900 | 2.2 | 30
Cc1nc(C)c(-c2ncc3c(C(N)=O)c(N)n(-c4c(C)ccc(O)c4C)c3n2)o1 (racemic) | 1.81 | – | – | > 9.97 | 0.025 | 3.83 | 0.342 | 27.7 | 12.000 | 2.5 | 31
Cc1ccc(O)c(C)c1-n1c(N)c(C(N)=O)c2cnc(-c3c(C)noc3C)nc21 (racemic) | 1.33 | – | – | > 9.97 | 0.022 | 2.21 | 0.431 | 8 | 43.700 | 2.6 | 218
Cc1ccc(O)c(C)c1-n1c(N)c(C(N)=O)c2cnc(N3CCOCC3)nc21 (single isomer, unassigned) [47, Isomer 1] | 0.054 | 17.626 1E−6.cm/s | 13.4 | > 9.97 | 0.016 | 3.4 | 0.328 | 15.7 | 14.288 | – | –
Cc1ccc(O)c(C)c1-n1c(N)c(C(N)=O)c2cnc(-c3cn[nH]c3)nc21 (racemic) | 1.85 | – | – | > 9.97 | 0.031 | 11.1 | 0.331 | > 30 | 16.800 | 1.8 | >1000
Cc1ccc(O)c(C)c1-n1c(N)c(C(N)=O)c2cnc(Cl)nc21 (single isomer, unassigned) [57, Isomer 1] | > 9.97 | 11.695 1E−6.cm/s | 5.52 | > 9.97 | 1.02 | > 30 | – | 22.6 | 8.110 | – | –
CCn1cc2c(C(N)=O)c(N)n(-c3c(C)ccc(O)c3C)c2nc1=O (single isomer, unassigned) [79, Isomer 1] | 0.786 | 0.859 1E−6.cm/s | 12.7 | > 9.97 | 0.304 | 4.13 | 0.59 | 21.2 | <3.000 | – | –
Cc1ccc(O)c(C)c1-n1c(N)c(C(N)=O)c2cnc(C(C)C)nc21 (racemic) | 0.984 | – | – | > 9.97 | 0.023 | 10.4 | 0.317 | > 21.5 | 47.123 | 2.49 | >1000
CCc1ncc2c(n1)c(-c1cc(O)ccc1C)c(N)n2C(N)=O (racemic) | 1.86 | – | – | > 9.97 | 0.023 | 13.5 | 0.187 | > 30 | 10.055 | 1.9 | >1000
Cc1ccc(O)c(C)c1-n1c(N)c(C(N)=O)c2cnc(-c3cnn4c3CCCC4)nc21 (racemic) | 0.31 | – | – | 5.28 | 0.015 | 2.07 | 0.243 | 9.72 | 43.000 | 2.6 | 130

— patent publication US20260384438A1, “PYRROLOPYRIMIDINE CARBOXAMIDES” (published 2026)
